In US20110092456A1, “Methods of increasing cAMP levels and uses thereof” (priority 2009, published 2011):

Details: rat, in vivo

For `O=C1CCc2cc(OCCCCc3nnnn3C3CCCCC3)ccc2N1` [cilostazol], the mean heart rate was 228.0±0.4 bpm.
